# Results as given in patent US10189822B2, “Heterocyclic modulators of lipid synthesis” (3-V Biosciences, Inc., priority 2015, dated 2019).
# Read-outs that look alike come from different tables or passages of the source.
# Tested on: ET (luc-ubi-neo/ET) cell line, Huh7 human hepatoma
# Assay: cells
# Conditions: Huh-7, 72 h
structure (smiles),measurement,setting,value
Cc1ccc(C(=O)N2CCC(F)(c3ccc(C#N)cc3)CC2)cc1NC(=O)NC1CCOC1 (centres unmarked) [(I-Z)],IC50,"read-out: Cell IC50, Luc assay system: CytoTox-1 cell proliferation assay",> 32 µM
same,IC50,"read-out: Cell IC50, RNA-based assay: rRNA levels via TaqMan RT-PCR",> 100 µM
